These compounds were tested on acetylated α-tubulin (AcTub) levels in QBI293 cells. Conditions: 1 and 10 μM.

| Structure (SMILES) | effect on AcTub and α-tubulin levels |
| --- | --- |
| C[C@H](Nc1c(-c2c(F)cc(C#N)cc2F)c(Cl)nc2ncnn12)C(F)(F)F [Compound 20, (S)-4-(5-Chloro-7-((1,1,1-trifluoropropan-2-yl)amino)-[1,2,4]triazolo[1,5-a]pyrimidin-6-yl)-3,5-difluorobenzonitrile] | increase AcTub levels without producing a significant reduction in α-tubulin levels |
| C[C@H](Nc1c(-c2c(F)cc([N+](=O)[O-])cc2F)c(Cl)nc2ncnn12)C(F)(F)F [Compound 22, (S)-5-Chloro-6-(2,6-difluoro-4-nitrophenyl)-N-(1,1,1-trifluoropropan-2-yl)-[1,2,4]triazolo[1,5-a]pyrimidin-7-amine] | increase AcTub levels without producing a significant reduction in α-tubulin levels |

Same assay, conditions: from AcTub and α-Tub at 1 and 10 μM

| Structure (SMILES) | Class (Table 1) |
| --- | --- |
| C[C@H](Nc1c(-c2cc(F)cc(F)c2)c(Cl)nc2ncnn12)C(F)(F)F [Compound 13, (S)-5-Chloro-6-(3,5-difluorophenyl)-N-(1,1,1-trifluoropropan-2-yl)-[1,2,4]triazolo[1,5-a]pyrimidin-7-amine] | I (Class I compounds are those producing a concentration-dependent increase in AcTub levels and that do not cause >15% reduction in α-tubulin at either concentration) |
| C[C@H](Nc1c(-c2ccccc2F)c(Cl)nc2ncnn12)C(F)(F)F [Compound 10, 5-Chloro-6-(2-fluorophenyl)-N-(−1,1,1-trifluoropropan-2-yl)-[1,2,4]triazolo[1,5-a]pyrimidin-7-amine] | I (Class I compounds are those producing a concentration-dependent increase in AcTub levels and that do not cause >15% reduction in α-tubulin at either concentration) |
| C[C@H](Nc1c(-c2c(F)cc(C(F)(F)F)cc2F)c(Cl)nc2ncnn12)C(F)(F)F [Compound 19, (S)-5-Chloro-6-(2,6-difluoro-4-(trifluoromethyl)phenyl)-N-(1,1,1-trifluoropropan-2-yl)-[1,2,4]triazolo[1,5-a]pyrimidin-7-amine] | I (Class I compounds are those producing a concentration-dependent increase in AcTub levels and that do not cause >15% reduction in α-tubulin at either concentration) |
| Cc1cc(F)c(-c2c(Cl)nc3ncnn3c2N[C@@H](C)C(F)(F)F)c(F)c1 [Compound 18, (S)-5-Chloro-6-(2,6-difluoro-4-methylphenyl)-N-(1,1,1-trifluoropropan-2-yl)-[1,2,4]triazolo[1,5-a]pyrimidin-7-amine] | II (Class II compounds are those that cause >15% decrease in α-tubulin at either 1 or 10 μM compound concentration) |
| C[C@H](Nc1c(-c2c(F)cc(O)cc2F)c(Cl)nc2ncnn12)C(F)(F)F [Compound 33] | II (Class II compounds are those that cause >15% decrease in α-tubulin at either 1 or 10 μM compound concentration) |
| C[C@H](Nc1c(-c2c(F)cc(C#N)cc2F)c(Cl)nc2ncnn12)C(F)(F)F [Compound 20, (S)-4-(5-Chloro-7-((1,1,1-trifluoropropan-2-yl)amino)-[1,2,4]triazolo[1,5-a]pyrimidin-6-yl)-3,5-difluorobenzonitrile] | I (Class I compounds are those producing a concentration-dependent increase in AcTub levels and that do not cause >15% reduction in α-tubulin at either concentration) |
| C[C@H](Nc1c(-c2c(F)cccc2F)c(Cl)nc2ncnn12)C(F)(F)F [Compound 12, (S)-5-Chloro-6-(2,6-difluorophenyl)-N-(1,1,1-trifluoropropan-2-yl)-[1,2,4]triazolo[1,5-a]pyrimidin-7-amine] | I (Class I compounds are those producing a concentration-dependent increase in AcTub levels and that do not cause >15% reduction in α-tubulin at either concentration) |
| C[C@H](Nc1c(-c2ccccc2)c(Cl)nc2ncnn12)C(F)(F)F [Compound 8, (S)-5-Chloro-6-phenyl-N-(1,1,1-trifluoropropan-2-yl)-[1,2,4]triazolo[1,5-a]pyrimidin-7-amine] | I (Class I compounds are those producing a concentration-dependent increase in AcTub levels and that do not cause >15% reduction in α-tubulin at either concentration) |
| C[C@H](Nc1c(-c2ccc(F)cc2F)c(Cl)nc2ncnn12)C(F)(F)F [Compound 11] | I (Class I compounds are those producing a concentration-dependent increase in AcTub levels and that do not cause >15% reduction in α-tubulin at either concentration) |
| C[C@H](Nc1c(-c2cc(F)ccc2F)c(Cl)nc2ncnn12)C(F)(F)F [Compound 14, (S)-5-Chloro-6-(2,5-difluorophenyl)-N-(−1,1,1-trifluoropropan-2-yl)-[1,2,4]triazolo[1,5-a]pyrimidin-7-amine] | I (Class I compounds are those producing a concentration-dependent increase in AcTub levels and that do not cause >15% reduction in α-tubulin at either concentration) |
| COc1cc(F)c(-c2c(Cl)nc3ncnn3c2N[C@@H](C)C(F)(F)F)c(F)c1 [Compound 24, (S)-5-chloro-6-(2,6-difluoro-4-methoxyphenyl)-N-(1,1,1-trifluoropropan-2-yl)-[1,2,4]triazolo[1,5-a]pyrimidin-7-amine] | II (Class II compounds are those that cause >15% decrease in α-tubulin at either 1 or 10 μM compound concentration) |
| C[C@H](Nc1c(-c2ccc(F)c(F)c2F)c(Cl)nc2ncnn12)C(F)(F)F [Compound 16, (S)-5-Chloro-6-(2,3,4-trifluorophenyl)-N-(−1,1,1-trifluoropropan-2-yl)-[1,2,4]triazolo[1,5-a]pyrimidin-7-amine] | I (Class I compounds are those producing a concentration-dependent increase in AcTub levels and that do not cause >15% reduction in α-tubulin at either concentration) |
| C[C@H](Nc1c(-c2c(F)cc([N+](=O)[O-])cc2F)c(Cl)nc2ncnn12)C(F)(F)F [Compound 22, (S)-5-Chloro-6-(2,6-difluoro-4-nitrophenyl)-N-(1,1,1-trifluoropropan-2-yl)-[1,2,4]triazolo[1,5-a]pyrimidin-7-amine] | I (Class I compounds are those producing a concentration-dependent increase in AcTub levels and that do not cause >15% reduction in α-tubulin at either concentration) |

Same assay, conditions: from AcTub and α-Tub at 1 and 10 μM (61: 10 and 30 μM)

| Structure (SMILES) | Class (Table 2) |
| --- | --- |
| Fc1cc(F)c(-c2c(Cl)nc3ncnn3c2NC2CCCCC2)c(F)c1 [Compound 58, 5-Chloro-N-cyclohexyl-6-(2,4,6-trifluorophenyl)-[1,2,4]triazolo[1,5-a]pyrimidin-7-amine] | I (Class I compounds are those producing a concentration-dependent increase in AcTub levels and that do not cause >15% reduction in α-tubulin at either concentration) |
| Fc1cc(F)c(-c2c(Cl)nc3ncnn3c2NCc2ccccc2)c(F)c1 [Compound 41, N-Benzyl-5-chloro-6-(2,4,6-trifluorophenyl)-[1,2,4]triazolo[1,5-a]pyrimidin-7-amine] | I (Class I compounds are those producing a concentration-dependent increase in AcTub levels and that do not cause >15% reduction in α-tubulin at either concentration) |
| CC(C)(C)CNc1c(-c2c(F)cc(F)cc2F)c(Cl)nc2ncnn12 [Compound 59, 5-Chloro-N-neopentyl-6-(2,4,6-trifluorophenyl)-[1,2,4]triazolo[1,5-a]pyrimidin-7-amine] | I (Class I compounds are those producing a concentration-dependent increase in AcTub levels and that do not cause >15% reduction in α-tubulin at either concentration) |
| Fc1cc(F)c(-c2c(Cl)nc3ncnn3c2N2CCCCC2)c(F)c1 [Compound 51, 5-Chloro-7-(piperidin-1-yl)-6-(2,4,6-trifluorophenyl)-[1,2,4]triazolo[1,5-a]pyrimidine] | I (Class I compounds are those producing a concentration-dependent increase in AcTub levels and that do not cause >15% reduction in α-tubulin at either concentration) |
| CC(Nc1c(-c2c(F)cc(F)cc2F)c(Cl)nc2ncnn12)C(F)F (stereo not drawn) [Compound 43, 5-Chloro-N-(1,1-difluoropropan-2-yl)-6-(2,4,6-trifluorophenyl)-[1,2,4]triazolo[1,5-a]pyrimidin-7-amine] | I (Class I compounds are those producing a concentration-dependent increase in AcTub levels and that do not cause >15% reduction in α-tubulin at either concentration) |
| CC(C)Nc1c(-c2c(F)cc(F)cc2F)c(Cl)nc2ncnn12 [Compound 35, 5-Chloro-N-isopropyl-6-(2,4,6-trifluorophenyl)-[1,2,4]triazolo[1,5-a]pyrimidin-7-amine] | I (Class I compounds are those producing a concentration-dependent increase in AcTub levels and that do not cause >15% reduction in α-tubulin at either concentration) |
| Fc1cc(F)c(-c2c(Cl)nc3ncnn3c2N2CCC2)c(F)c1 [Compound 49, 7-(Azetidin-1-yl)-5-chloro-6-(2,4,6-trifluorophenyl)-[1,2,4]triazolo[1,5-a]pyrimidine] | I (Class I compounds are those producing a concentration-dependent increase in AcTub levels and that do not cause >15% reduction in α-tubulin at either concentration) |
| CC(C)CNc1c(-c2c(F)cc(F)cc2F)c(Cl)nc2ncnn12 [Compound 37, 5-Chloro-N-isobutyl-6-(2,4,6-trifluorophenyl)-[1,2,4]triazolo[1,5-a]pyrimidin-7-amine] | I (Class I compounds are those producing a concentration-dependent increase in AcTub levels and that do not cause >15% reduction in α-tubulin at either concentration) |
| Fc1cc(F)c(-c2c(Cl)nc3ncnn3c2NC2CCC2)c(F)c1 [Compound 56, 5-Chloro-N-cyclobutyl-6-(2,4,6-trifluorophenyl)-[1,2,4]triazolo[1,5-a]pyrimidin-7-amine] | I (Class I compounds are those producing a concentration-dependent increase in AcTub levels and that do not cause >15% reduction in α-tubulin at either concentration) |
| Fc1cc(F)c(-c2c(Cl)nc3ncnn3c2N2CCCCCC2)c(F)c1 [Compound 52, 7-(Azepan-1-yl)-5-chloro-6-(2,4,6-trifluorophenyl)-[1,2,4]triazolo[1,5-a]pyrimidine] | I (Class I compounds are those producing a concentration-dependent increase in AcTub levels and that do not cause >15% reduction in α-tubulin at either concentration) |
| Fc1cc(F)c(-c2c(Cl)nc3ncnn3c2N2CCCC2)c(F)c1 [Compound 50, 5-Chloro-7-(pyrrolidin-1-yl)-6-(2,4,6-trifluorophenyl)-[1,2,4]triazolo[1,5-a]pyrimidine] | I (Class I compounds are those producing a concentration-dependent increase in AcTub levels and that do not cause >15% reduction in α-tubulin at either concentration) |
| CO[C@H]1C[C@H]2CC[C@@H](C1)N2c1c(-c2c(F)cc(F)cc2F)c(Cl)nc2ncnn12 [Compound 54] | I (Class I compounds are those producing a concentration-dependent increase in AcTub levels and that do not cause >15% reduction in α-tubulin at either concentration) |
